Earlier results, collected in patent US20070021421A1 (priority 2005, published 2007).

System: ALS patients
Settings: ALS therapy; cited from earlier work

In the case of `Nc1nc2ccc(OC(F)(F)F)cc2s1` [Riluzole], the prolongation of survival is given as 2-3 month.
